Active and inactive are the calls of the source. The rule behind the calls is not given here.
Tests used:
[1] = molecular target: T1, Phospholipase D2 (Homo sapiens, UniProt O14939)
[2] = molecular target: Voltage-gated inwardly rectifying potassium channel KCNH2 (Homo sapiens, UniProt Q12809)
[3] = molecular target: T2, Phospholipase D1 (Homo sapiens, UniProt Q13393); experiment: Inhibition of PLD1 in human Calu-1 cells assessed as deuterated 1-butanol incorporation pretreated for 5 mins prior to substrate addition measured after 30 mins by mass spectrometry
T2 sequence (Q13393 whole entry): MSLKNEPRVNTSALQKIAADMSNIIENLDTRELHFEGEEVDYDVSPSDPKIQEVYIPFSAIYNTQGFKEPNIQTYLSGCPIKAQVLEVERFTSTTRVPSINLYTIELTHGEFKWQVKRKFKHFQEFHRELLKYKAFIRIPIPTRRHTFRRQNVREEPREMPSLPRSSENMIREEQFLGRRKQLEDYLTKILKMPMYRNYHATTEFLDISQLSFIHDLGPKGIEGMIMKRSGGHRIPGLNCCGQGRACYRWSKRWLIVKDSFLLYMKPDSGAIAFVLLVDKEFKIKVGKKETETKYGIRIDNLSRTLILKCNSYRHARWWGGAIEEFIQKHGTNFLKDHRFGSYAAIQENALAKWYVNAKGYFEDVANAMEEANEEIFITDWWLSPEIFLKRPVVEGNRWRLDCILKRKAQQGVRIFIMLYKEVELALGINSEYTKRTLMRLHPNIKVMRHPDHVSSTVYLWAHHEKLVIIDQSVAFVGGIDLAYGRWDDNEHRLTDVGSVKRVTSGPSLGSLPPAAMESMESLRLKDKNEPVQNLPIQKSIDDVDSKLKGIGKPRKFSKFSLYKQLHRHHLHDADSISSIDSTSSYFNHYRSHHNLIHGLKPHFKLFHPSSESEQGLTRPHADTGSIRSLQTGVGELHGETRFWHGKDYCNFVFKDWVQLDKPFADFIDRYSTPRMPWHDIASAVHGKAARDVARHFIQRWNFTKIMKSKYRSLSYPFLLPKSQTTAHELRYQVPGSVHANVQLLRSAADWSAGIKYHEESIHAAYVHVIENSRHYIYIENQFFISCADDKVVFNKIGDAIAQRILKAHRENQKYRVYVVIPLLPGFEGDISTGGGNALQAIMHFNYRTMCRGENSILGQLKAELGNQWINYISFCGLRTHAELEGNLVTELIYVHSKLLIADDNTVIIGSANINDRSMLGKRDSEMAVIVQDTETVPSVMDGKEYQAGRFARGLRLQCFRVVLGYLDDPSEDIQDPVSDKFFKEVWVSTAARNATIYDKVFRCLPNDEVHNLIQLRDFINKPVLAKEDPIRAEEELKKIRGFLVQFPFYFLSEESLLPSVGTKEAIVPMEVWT

The chains behind the UniProt entries cited, without tags or fusion partners. Where a name states a change or a piece, a line headed by the entry shows the natural chain unless it says otherwise.
UniProt O14939: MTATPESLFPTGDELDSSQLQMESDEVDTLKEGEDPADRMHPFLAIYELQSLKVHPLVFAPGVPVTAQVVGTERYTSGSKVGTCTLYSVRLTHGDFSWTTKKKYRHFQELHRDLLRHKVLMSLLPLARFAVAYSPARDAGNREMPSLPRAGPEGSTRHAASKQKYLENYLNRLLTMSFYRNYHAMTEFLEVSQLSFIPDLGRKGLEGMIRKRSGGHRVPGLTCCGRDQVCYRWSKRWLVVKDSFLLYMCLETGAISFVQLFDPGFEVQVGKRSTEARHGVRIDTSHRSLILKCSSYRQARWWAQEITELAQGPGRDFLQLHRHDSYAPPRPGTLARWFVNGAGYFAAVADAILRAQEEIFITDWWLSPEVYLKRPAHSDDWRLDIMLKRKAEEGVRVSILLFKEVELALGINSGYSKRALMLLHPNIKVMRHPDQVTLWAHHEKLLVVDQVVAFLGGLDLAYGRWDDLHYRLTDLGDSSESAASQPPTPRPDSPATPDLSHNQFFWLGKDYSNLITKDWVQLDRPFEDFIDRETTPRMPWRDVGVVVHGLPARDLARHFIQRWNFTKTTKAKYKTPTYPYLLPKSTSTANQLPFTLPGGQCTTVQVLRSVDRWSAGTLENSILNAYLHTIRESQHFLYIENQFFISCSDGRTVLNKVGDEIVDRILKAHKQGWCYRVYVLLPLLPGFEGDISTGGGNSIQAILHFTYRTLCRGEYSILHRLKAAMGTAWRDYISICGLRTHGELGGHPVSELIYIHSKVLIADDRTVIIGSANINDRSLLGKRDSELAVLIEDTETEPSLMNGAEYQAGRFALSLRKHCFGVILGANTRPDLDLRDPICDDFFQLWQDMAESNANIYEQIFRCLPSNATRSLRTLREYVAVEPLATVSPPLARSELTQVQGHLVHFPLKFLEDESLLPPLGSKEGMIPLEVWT
UniProt Q12809: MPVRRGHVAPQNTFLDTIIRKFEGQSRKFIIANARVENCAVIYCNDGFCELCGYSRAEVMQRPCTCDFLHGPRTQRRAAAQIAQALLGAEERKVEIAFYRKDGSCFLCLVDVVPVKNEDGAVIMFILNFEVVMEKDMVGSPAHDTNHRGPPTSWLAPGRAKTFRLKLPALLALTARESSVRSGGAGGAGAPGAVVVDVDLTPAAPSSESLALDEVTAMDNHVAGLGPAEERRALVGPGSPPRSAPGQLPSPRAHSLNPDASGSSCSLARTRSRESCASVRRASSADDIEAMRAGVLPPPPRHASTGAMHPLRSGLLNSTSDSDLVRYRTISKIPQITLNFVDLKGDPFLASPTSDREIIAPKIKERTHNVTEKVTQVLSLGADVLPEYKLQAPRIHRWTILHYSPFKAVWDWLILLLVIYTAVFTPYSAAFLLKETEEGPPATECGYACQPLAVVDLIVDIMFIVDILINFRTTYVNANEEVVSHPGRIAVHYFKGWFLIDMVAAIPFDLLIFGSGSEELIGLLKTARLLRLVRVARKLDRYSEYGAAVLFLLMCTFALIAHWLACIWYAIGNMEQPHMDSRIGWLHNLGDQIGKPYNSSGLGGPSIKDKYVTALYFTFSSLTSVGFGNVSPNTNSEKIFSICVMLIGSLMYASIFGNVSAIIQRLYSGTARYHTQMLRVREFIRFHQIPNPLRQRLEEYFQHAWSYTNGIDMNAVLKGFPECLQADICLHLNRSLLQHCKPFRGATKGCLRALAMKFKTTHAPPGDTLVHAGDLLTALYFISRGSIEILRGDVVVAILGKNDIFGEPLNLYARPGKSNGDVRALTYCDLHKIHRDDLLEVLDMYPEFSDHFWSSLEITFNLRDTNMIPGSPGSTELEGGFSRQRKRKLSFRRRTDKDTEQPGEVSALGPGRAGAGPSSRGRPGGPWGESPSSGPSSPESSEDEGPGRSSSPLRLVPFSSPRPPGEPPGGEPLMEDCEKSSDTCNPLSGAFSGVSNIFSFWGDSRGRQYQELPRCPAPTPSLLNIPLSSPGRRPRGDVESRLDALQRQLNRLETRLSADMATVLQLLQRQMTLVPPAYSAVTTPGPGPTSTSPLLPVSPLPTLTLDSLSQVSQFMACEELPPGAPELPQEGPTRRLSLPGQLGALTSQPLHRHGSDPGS
UniProt P11712, whole entry: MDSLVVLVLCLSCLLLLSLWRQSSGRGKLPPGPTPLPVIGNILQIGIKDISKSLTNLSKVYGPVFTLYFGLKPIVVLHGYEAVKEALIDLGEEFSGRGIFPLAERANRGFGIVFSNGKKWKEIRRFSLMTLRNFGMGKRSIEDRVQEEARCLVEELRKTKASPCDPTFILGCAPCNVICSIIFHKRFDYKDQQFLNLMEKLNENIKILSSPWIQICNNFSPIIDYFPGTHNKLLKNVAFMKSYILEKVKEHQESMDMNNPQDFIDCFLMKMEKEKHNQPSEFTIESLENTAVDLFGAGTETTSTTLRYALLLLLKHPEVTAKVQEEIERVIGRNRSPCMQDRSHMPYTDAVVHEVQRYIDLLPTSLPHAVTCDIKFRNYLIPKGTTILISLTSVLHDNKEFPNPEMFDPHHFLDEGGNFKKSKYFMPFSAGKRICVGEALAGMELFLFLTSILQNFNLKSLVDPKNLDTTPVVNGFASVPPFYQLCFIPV
UniProt P08684, whole entry: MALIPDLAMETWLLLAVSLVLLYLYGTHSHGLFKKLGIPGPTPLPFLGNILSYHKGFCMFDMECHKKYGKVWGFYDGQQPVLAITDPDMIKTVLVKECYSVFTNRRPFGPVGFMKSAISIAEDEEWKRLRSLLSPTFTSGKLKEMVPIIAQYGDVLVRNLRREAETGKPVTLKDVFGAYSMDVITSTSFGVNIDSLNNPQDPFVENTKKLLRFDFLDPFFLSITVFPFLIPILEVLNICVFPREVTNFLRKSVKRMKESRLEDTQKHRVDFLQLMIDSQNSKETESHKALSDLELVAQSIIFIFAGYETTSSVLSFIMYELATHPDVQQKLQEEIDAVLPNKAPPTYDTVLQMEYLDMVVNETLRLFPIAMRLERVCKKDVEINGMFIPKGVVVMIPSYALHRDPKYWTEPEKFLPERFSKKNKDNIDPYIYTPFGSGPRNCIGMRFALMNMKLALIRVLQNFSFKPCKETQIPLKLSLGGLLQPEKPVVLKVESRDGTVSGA

[4] = molecular target: T3, Phospholipase D1 (Homo sapiens) (UniProt Q13393); conditions: U-87MG ATCC
T3 sequence (whole entry): T2 sequence (Q13393 whole entry)

[5] = molecular target: T1, Phospholipase D2; conditions: U-87MG ATCC
[6] = molecular target: Cytochrome P450 2C9 (Homo sapiens, UniProt P11712)
[7] = molecular target: T2, Phospholipase D1
[8] = molecular target: T1, Phospholipase D2; experiment: Inhibition of GFP-tagged PLD2 in human HEK293 cells assessed as deuterated 1-butanol incorporation pretreated for 5 mins prior to substrate addition measured after 30 mins by mass spectrometry
[9] = molecular target: Cytochrome P450 3A4 (Homo sapiens, UniProt P08684)
[10] = molecular target: T3, Phospholipase D1 (Homo sapiens); conditions: Calu-1, 20 uM

Row | Compound | IC50 [1] [nM] | IC50 [2] [nM] | IC50 [3] [nM] | inhibition [4] | inhibition [5] | IC50 [6] [nM] | IC50 [7] [nM] | IC50 [8] [nM] | IC50 [9] [nM] | inhibition [10]
1 | Cc1cccc(N2CNC(=O)C23CCN(C[C@H](C)NC(=O)c2ccc(Br)cc2)CC3)c1 | 84 | > 20000 | 6 | Dose-dependent effect | Dose-dependent effect | 13300 | 48 | 20 | 6800 | –
2 | O=C(NCCN1CCC2(CC1)C(=O)NCN2c1cccc(F)c1)c1ccc2ccccc2c1 | – | – | – | – | – | – | – | – | – | Active

Source: ChEMBL document CHEMBL2321744 (J Med Chem, 2013)
